Experimental data from patent US9187462B2, “Substituted quinazolines as serine/threonine kinase inhibitors” (Array BioPharma Inc., priority 2011, dated 2015).
Read-outs that look alike come from different tables or passages of the source.

Sequences of proteins named here, by UniProt entry; tags and fusion partners are left off. Residues count along the entry.
UniProt P28482, 8-360: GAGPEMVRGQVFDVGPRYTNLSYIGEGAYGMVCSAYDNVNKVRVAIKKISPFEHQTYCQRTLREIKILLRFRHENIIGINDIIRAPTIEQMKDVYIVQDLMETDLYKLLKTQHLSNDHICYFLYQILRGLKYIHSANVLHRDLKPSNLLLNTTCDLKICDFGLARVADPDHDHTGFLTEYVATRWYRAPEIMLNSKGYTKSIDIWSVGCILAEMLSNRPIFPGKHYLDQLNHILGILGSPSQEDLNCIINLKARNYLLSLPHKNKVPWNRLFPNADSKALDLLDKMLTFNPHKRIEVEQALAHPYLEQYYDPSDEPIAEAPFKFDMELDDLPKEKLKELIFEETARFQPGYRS

Target: human ERK-2 (Mitogen Activated Kinase 1) (Homo sapiens (Human), UniProt P28482)
Test: ERK-2 Enzymatic Assay
Type: biochemical
Conditions: 5 nM ERK-2 enzyme, 25 μM ATP, Omnia peptide S/T17, single assay or mean of multiple assays
Method: Compounds were tested in an enzymatic assay using human ERK-2 (Mitogen Activated Kinase 1), recombinantly expressed as an N-terminal 6-His fusion protein in E. coli and corresponding to aa 8-360. The substrate used was the fluorescent Omnia peptide S/T17 (Invitrogen of Carlsbad, Calif.; Cat. KNZ1171C). Test compounds were diluted in DMSO in 3-fold serial dilutions at 100× final concentrations. […] The assay was run at ambient temperature in a white 384-well polypropylene plate (Nunc, Inc of Naperville, Ill.; Cat. 267462) collecting data every 50 seconds for approximately 30 minutes on an Envision plate reader (PerkinElmer, Inc. of Waltham, Mass.); Excitation 340 nm/Emission 495 nm. The data collected from each well was fit to a straight line and the resulting rates were used to calculate percent of control. Percent of control was plotted against compound concentration and IC50 values were determined using a four-parameter fit. Representative data is in TABLE I and TABLE II. The reported IC50 may be from a single assay or the mean of multiple assays.

[1] = read-out: IC50 (ERK-2 Enzymatic Assay), TABLE I

Row | Compound | IC50 [1] [nM] | IC50 (read-out: IC50 (ERK-2 Enzymatic Assay), TABLE II) [nM]
1 | C[C@@H](CO)Nc1ncc2ccc(C(=O)N[C@@H](c3ccc(Cl)c(F)c3)c3cnn(C)c3)cc2n1 [I-15, 2-((S)-2-hydroxy-1-methyl-ethylamino)-quinazoline-7-carboxylic acid [(S)-(4-chloro-3-fluoro-phenyl)-(1-methyl-1H-pyrazol-4-yl)-methyl]-amide] | 1.2 | 
2 | COc1ccc([C@H](NC(=O)c2cc(F)c3cnc(N[C@H]4CC[C@H](O)CC4)nc3c2)c2cnn(C)c2)cc1F [I-69] | 1.2 | 
3 | COc1ccc([C@H](NC(=O)c2cc(F)c3cnc(N[C@H]4CC[C@H](O)CC4)nc3c2)c2cnn(C)c2)cc1F [II-13] |  | 1.2
